Antibody variant affinities, Ab-14 heavy chain, assay B

Target: peptide PDVDLGDISGINAS, taken from heptad repeat 2 (HR2) of SARS-CoV-2 spike.

Each scFv is VH, a (GGGGS)3 linker, VL, as in the parent Ab-14, and differs from it in the CDRs of the heavy chain only.
VH: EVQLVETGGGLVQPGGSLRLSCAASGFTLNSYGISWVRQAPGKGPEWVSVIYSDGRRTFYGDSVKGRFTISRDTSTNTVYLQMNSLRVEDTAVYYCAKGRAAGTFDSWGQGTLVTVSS
VL: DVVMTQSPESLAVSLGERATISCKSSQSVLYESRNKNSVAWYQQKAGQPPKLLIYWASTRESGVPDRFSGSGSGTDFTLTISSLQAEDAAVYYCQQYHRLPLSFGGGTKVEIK

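The variants were designed computationally from a first round of random CDR variants and then made and measured. Group labels follow the data file (Ctrl: baseline library sampled from a position-specific scoring matrix, with some repeated check sequences; En: ensemble of fine-tuned language models; GP: Gaussian process model; GPLM: also part of the Gaussian process libraries; HC: hill climbing; Gen: genetic algorithm; Gibbs: Gibbs sampling; a sequence that several methods proposed may carry one label only). The assay is AlphaSeq: two haploid yeast populations carry antibody and antigen on their surface. Binding brings cells together so that they mate, and sequencing counts the barcode pairs among the diploids. A regression on co-assayed BCL2-family reference pairs converts the normalised counts of each replicate to an apparent Kd. Mating was done six times.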

Variants are written as CDR1, CDR2 and CDR3 of the heavy chain (limits as in the source). Parent: GFTLNSYGIS, VIYSDGRRTFYGDSVK, GRAAGTFDS. Values are log10 of the apparent Kd in nM; lower means stronger binding. Averages over replicates are reported, and they cover detected replicates only. Where no diploid with the target was found in any replicate, the entry reads "nd": below detection, most likely a poor binder, though not proof of it. Background: pairings of all heavy chain designs with three empty control strains gave a value in 1% of cases (median 2.08, 5th percentile 0.84). Values in that range, when seen in few replicates, are hard to tell from nonspecific mating. The parent sequence was in this pool as ten entries: three were never detected, three once, and four in most replicates, with averages from 0.34 to 2.37. The range of this assay differs from that of the first round, and the authors advise against merging the two. In the paper, a design with two or fewer of six values counts as a poor binder.

{"CDR-H1": "GFDLNEYGIS", "CDR-H2": "VIYADGVRTAYADSVK", "CDR-H3": "GNVAGTFDF", "group": "En_Gen", "mean, log10 nM": "-0.02", "seen in": "6 of 6"}
{"CDR-H1": "GFELESYGIS", "CDR-H2": "VIYSDGRRTSYGDSVK", "CDR-H3": "ERAAGTFDS", "group": "Ctrl", "mean, log10 nM": "nd", "seen in": "0 of 6"}
{"CDR-H1": "GFTLNSYGIS", "CDR-H2": "VIYSDGRRTFYSRSVK", "CDR-H3": "GRAAGFFDS", "group": "Ctrl", "mean, log10 nM": "2.24", "seen in": "1 of 6"}
{"CDR-H1": "GFNLNEYGIS", "CDR-H2": "VIYADGRRKFYSDSVK", "CDR-H3": "GEAAGTFDV", "group": "En_HC", "mean, log10 nM": "-0.09", "seen in": "6 of 6"}
{"CDR-H1": "GFDLNEYGIS", "CDR-H2": "VIYADGQRTAYADSVK", "CDR-H3": "GENAGTFDQ", "group": "En_Gen", "mean, log10 nM": "-0.10", "seen in": "6 of 6"}
{"CDR-H1": "GFDLNEYGIS", "CDR-H2": "VIYADGKRTYYADSVK", "CDR-H3": "GNVAGTFDQ", "group": "En_Gen", "mean, log10 nM": "-0.47", "seen in": "6 of 6"}
{"CDR-H1": "GFSIDEYGIS", "CDR-H2": "VIYADGNRSAYIDAVK", "CDR-H3": "GNYGSDFNE", "group": "En_Gibbs", "mean, log10 nM": "nd", "seen in": "0 of 6"}
{"CDR-H1": "GFDLNEYGIS", "CDR-H2": "VIYADGKRTAYADSVK", "CDR-H3": "GGVAGTFDI", "group": "En_Gen", "mean, log10 nM": "-0.30", "seen in": "6 of 6"}
{"CDR-H1": "GFDLNSYGIS", "CDR-H2": "VIYSDGRRTFYGDDVK", "CDR-H3": "GRNAGTFDS", "group": "GP_Gen", "mean, log10 nM": "0.03", "seen in": "6 of 6"}
{"CDR-H1": "GNTLNEYGIS", "CDR-H2": "VIYSDGRRTFYADSVK", "CDR-H3": "GRAAGTFDS", "group": "Ctrl", "mean, log10 nM": "0.82", "seen in": "6 of 6"}
{"CDR-H1": "GFELNEYGIS", "CDR-H2": "VIYSDGRRTFYGDMVK", "CDR-H3": "GRTAGTFDK", "group": "GP_Gibbs", "mean, log10 nM": "0.49", "seen in": "6 of 6"}
{"CDR-H1": "GFHLMSYGIS", "CDR-H2": "VIYSDGRRTFYGDSVK", "CDR-H3": "GKEAGTFDS", "group": "Ctrl", "mean, log10 nM": "0.94", "seen in": "6 of 6"}
{"CDR-H1": "GFDLNTYGIS", "CDR-H2": "VIYSDGRRTFYADSVK", "CDR-H3": "GRTAGTFDS", "group": "GPLM_Gen", "mean, log10 nM": "-0.61", "seen in": "6 of 6"}
{"CDR-H1": "GNDLNEYGIS", "CDR-H2": "VIYADGLRVFYAENVK", "CDR-H3": "GQLDVVVLA", "group": "En_Gibbs", "mean, log10 nM": "nd", "seen in": "0 of 6"}
{"CDR-H1": "GFDLNEYGIS", "CDR-H2": "VIYADGRRTQYADSVK", "CDR-H3": "GEIAGTFDS", "group": "En_HC", "mean, log10 nM": "nd", "seen in": "0 of 6"}
{"CDR-H1": "GFVLDEYGIS", "CDR-H2": "VIYADGKRQVYQDKVK", "CDR-H3": "GENTGNFDT", "group": "En_Gibbs", "mean, log10 nM": "1.92", "seen in": "5 of 6"}
{"CDR-H1": "GFTLNEYGIS", "CDR-H2": "VIYSDGRRTFYTDSVK", "CDR-H3": "GRFAGTFES", "group": "GPLM_HC", "mean, log10 nM": "1.85", "seen in": "2 of 6"}
{"CDR-H1": "GFNLNSFGIS", "CDR-H2": "VIYSDGLRVFMGDSVK", "CDR-H3": "GRAAGTFDS", "group": "Ctrl", "mean, log10 nM": "nd", "seen in": "0 of 6"}
{"CDR-H1": "GFDLEDYGIS", "CDR-H2": "VIYADGMRTAYADSVK", "CDR-H3": "GNEAGTFDV", "group": "En_Gen", "mean, log10 nM": "-0.79", "seen in": "6 of 6"}
{"CDR-H1": "GFDLNEYGIS", "CDR-H2": "VIYADGRRTAYADSVK", "CDR-H3": "GEQAGTFDS", "group": "En_HC", "mean, log10 nM": "-0.17", "seen in": "2 of 6"}
{"CDR-H1": "GFDLNEYGIS", "CDR-H2": "VIYADGRRTFYADSVK", "CDR-H3": "GTVAGTFDV", "group": "En_HC", "mean, log10 nM": "-0.50", "seen in": "6 of 6"}
{"CDR-H1": "HFNLNSYGIS", "CDR-H2": "VIYSDGRRTFYIDSVK", "CDR-H3": "GQAAGTFDS", "group": "GP_Gibbs", "mean, log10 nM": "nd", "seen in": "0 of 6"}
{"CDR-H1": "GFTLNSYGIS", "CDR-H2": "VIYSDGRRTAYGDSVK", "CDR-H3": "GRWMGTFDS", "group": "Ctrl", "mean, log10 nM": "nd", "seen in": "0 of 6"}
{"CDR-H1": "GFELNSYGIS", "CDR-H2": "VIYADGRRTFYGDSVK", "CDR-H3": "GRNAGTFDV", "group": "Ctrl", "mean, log10 nM": "-0.21", "seen in": "6 of 6"}
{"CDR-H1": "GFDLNEYGIS", "CDR-H2": "VIYADGMRQAYADSVK", "CDR-H3": "GNVAGTFDV", "group": "En_Gen", "mean, log10 nM": "-0.69", "seen in": "6 of 6"}

Extract of 2 entries:

{"CDR-H1": "GFVLDEYGIS", "CDR-H2": "VIYADGKRQVYQDKVK", "CDR-H3": "GENTGNFDT", "group": "En_Gibbs", "mean, log10 nM": "1.92", "seen in": "5 of 6"}
{"CDR-H1": "GNTLNEYGIS", "CDR-H2": "VIYSDGRRTFYADSVK", "CDR-H3": "GRAAGTFDS", "group": "Ctrl", "mean, log10 nM": "0.82", "seen in": "6 of 6"}

The measurements come from Li et al. 2023 (doi:10.1038/s41467-023-39022-2) through the FLAb antibody collection.